For one substance, EC90, 24 hr STAT-Luciferase assay in Baf3/KZ134/huIL-21R cells results are on record in US20100041873A1.

In the assay the target is Human IL-21 receptor on Baf3/KZ134/huIL-21R cells (human) (UniProt Q9HBE5). Nature of the assay: cell-based or functional assay.

Regarding “Recombinant murine IL-21 (from UniProt Q9ES17 18-146) (ligand)”, the EC90, 24 hr STAT-Luciferase assay in Baf3/KZ134/huIL-21R cells was determined as 6.41 nM.
